Measurements published in publication PMC3336786 (The FASEB Journal, 2012).

Protein sequences, listed by entry. Tags and fused reporters are not part of them. Lines headed by an entry give the natural chain unless they say otherwise; changes in a name come on top. Residues count along the entry.
UniProt P18507, 40-475: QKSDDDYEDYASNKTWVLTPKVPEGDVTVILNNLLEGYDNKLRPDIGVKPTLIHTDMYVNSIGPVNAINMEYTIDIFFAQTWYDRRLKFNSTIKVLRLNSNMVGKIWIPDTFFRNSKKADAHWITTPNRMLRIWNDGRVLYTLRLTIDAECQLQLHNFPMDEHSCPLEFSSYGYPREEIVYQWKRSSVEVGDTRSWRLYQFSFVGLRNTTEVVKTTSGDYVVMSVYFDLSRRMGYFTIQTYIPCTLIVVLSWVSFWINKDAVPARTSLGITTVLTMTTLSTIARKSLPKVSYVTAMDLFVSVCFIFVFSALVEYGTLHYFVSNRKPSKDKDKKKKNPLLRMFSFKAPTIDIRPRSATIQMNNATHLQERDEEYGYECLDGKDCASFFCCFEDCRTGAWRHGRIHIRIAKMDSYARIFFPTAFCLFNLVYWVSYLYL

How the values were obtained:
α1V2'Aβ2 = target: T1, α1V2'Aβ2 (Homo sapiens, UniProt P14867+P47870, V284A); assay type: cell-based; details: IC50, inhibition of GABA EC50 response
T1 sequence (P14867 28-456 V284A): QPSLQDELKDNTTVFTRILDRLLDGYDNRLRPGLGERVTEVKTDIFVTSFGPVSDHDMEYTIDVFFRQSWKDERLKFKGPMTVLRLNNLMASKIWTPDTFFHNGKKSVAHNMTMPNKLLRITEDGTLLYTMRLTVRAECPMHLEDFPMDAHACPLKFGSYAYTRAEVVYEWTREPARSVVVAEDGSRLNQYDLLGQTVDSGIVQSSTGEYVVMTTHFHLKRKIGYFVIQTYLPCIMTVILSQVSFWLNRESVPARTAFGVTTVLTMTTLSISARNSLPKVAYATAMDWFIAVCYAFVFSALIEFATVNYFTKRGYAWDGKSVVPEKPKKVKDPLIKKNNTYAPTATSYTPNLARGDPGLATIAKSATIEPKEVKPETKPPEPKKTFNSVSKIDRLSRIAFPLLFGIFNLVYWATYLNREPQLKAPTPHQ
T1 sequence (P47870 26-512): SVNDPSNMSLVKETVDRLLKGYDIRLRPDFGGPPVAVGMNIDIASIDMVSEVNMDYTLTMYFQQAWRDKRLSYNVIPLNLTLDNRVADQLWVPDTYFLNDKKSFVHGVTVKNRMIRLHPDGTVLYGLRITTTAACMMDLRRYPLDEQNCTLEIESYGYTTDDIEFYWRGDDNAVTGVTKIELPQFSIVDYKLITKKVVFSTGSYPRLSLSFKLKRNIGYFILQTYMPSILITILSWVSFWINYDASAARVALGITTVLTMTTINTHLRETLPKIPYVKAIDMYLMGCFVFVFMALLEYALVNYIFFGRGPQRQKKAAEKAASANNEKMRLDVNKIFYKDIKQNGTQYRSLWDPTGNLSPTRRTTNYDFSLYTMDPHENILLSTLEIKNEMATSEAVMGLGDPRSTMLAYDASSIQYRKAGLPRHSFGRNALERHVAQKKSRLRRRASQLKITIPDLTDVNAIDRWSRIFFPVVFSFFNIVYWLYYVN

α1V2'Aβ2γ2 = α1V2'Aβ2γ2 (Homo sapiens, UniProt P14867+P18507+P47870, V284A); assay type: cell-based

## C[C@@H]1C(=O)O[C@H]2C[C@@]34[C@H]5C[C@@H](C(C)(C)C)[C@]36[C@@H](OC(=O)[C@@H]6O)O[C@@]4(C(=O)O5)[C@]21O [GA, ginkgolide A]
α1V2'Aβ2
  IC50: 20.4 µM
α1V2'Aβ2γ2
  IC50: 4.68 µM
